The source of these data is patent US6660837 (KIRIN BEER, dated 2003).

This assay deals with T1, PKNN2 (N-terminal region of PKN, amino acid sequence 1-474), 35S-labeled, in vitro translated (human, UniProt Q16512, in part, [35S]methionine label).
T1 construct: also called in vitro translated PKN-N; PKN prepared by in vitro translation
Nature of the assay: GST pull-down of 35S-labeled in vitro translated PKNN2.

B1: GST-spectrin repeat 20 of rat α-spectrin (other, UniProt P08515 1-218, looked up)
chain: MSPILGYWKIKGLVQPTRLLLEYLEEKYEEHLYERDEGDKWRNKKFELGLEFPNLPYYIDGDVKLTQSMAIIRYIADKHNMLGGCPKERAEISMLEGAVLDIRYGVSRIAYSKDFETLKVDFLSKLPEMLKMFEDRLCHKTYLNGDHVTHPDFMLYDALDVVLYMDPMCLDAFPKLVCFKKRIEAIPQIDKYLKSSKYIAWPLQGWQATFGGGDHPPKLFLTFAKKASAFNSWFENAEEDLTDPVRCNSLEEIKALREAHDAFRSSLSSAQADFNQLAELDRQIKSFRVASNPYTWFTMEALEETWRNLQKIIKERELELQKEQR
notes: also called GST-spectrin repeat 20 of α-spectrin
Consider B1, for which the binding result is “no binding”.
